The values that follow come from PubChem BioAssay AID1259318 (Sanford-Burnham Center for Chemical Genomics, 2017).

The chains behind the UniProt entries cited, without tags or fusion partners.
UniProt P20393, whole entry, looked up: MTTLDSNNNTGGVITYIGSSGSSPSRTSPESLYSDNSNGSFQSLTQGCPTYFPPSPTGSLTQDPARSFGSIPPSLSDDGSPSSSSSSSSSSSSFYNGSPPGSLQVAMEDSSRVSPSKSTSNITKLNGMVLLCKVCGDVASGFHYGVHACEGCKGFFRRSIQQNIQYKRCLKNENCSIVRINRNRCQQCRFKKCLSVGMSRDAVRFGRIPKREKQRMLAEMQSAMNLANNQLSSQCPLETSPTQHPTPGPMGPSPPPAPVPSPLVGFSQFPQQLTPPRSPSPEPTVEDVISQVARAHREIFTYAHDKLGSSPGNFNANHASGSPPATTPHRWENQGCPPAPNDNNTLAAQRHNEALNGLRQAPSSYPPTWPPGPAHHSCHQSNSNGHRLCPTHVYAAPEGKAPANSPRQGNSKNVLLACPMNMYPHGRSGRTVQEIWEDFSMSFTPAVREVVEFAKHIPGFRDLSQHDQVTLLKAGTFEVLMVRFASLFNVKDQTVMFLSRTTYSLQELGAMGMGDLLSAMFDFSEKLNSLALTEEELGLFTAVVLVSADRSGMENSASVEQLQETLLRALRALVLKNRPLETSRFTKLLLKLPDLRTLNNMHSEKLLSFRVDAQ

Molecules are shown by their SMILES. The list shows a part of the results, in another mix than the full data. Calls of active or inactive are those of the source.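 Rule for the calls: active = activity above about 14% (limit read from the data; passing the limit was not always enough); inactive = the rest.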

The target in the experiment is Nuclear receptor subfamily 1 group D member 1 (Homo sapiens) (UniProt P20393). The experiment is described as follows: Rev-erbα–DNA interaction modulation – biochemical, FITC-DNA, fluorescence polarization, uHTS, primary screen (AID 1259318).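 Note: 0% = DMSO wells with 35 nM protein and 100% = DMSO wells with 750 nM protein.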 As to conditions: Rev-erbα–FITC-DNA binding, 90 min, at 10 µM, stronger effect = higher value. (In fluorescence polarisation assays a small probe gives low polarisation when free and higher when bound to something large.)
For the compound `CCCOc1ccc(NP(C)(=O)Oc2ccc(Cl)cc2)cc1` (stereo unspecified), the activity was inactive: -3.7%.

In the case of `CP(=O)(Nc1ccc(SC(F)(F)F)cc1)Oc1ccccc1` (stereo unspecified), the activity was inactive: 3.21%.

Regarding `COc1ccc(-c2ccccn2)cc1.O=[N+]([O-])c1cc([N+](=O)[O-])c(O)c([N+](=O)[O-])c1`, the activity was inactive: 2.81%.

In the case of `COc1ccccc1OP(C)(=O)Nc1c(C)cccc1C` (stereo unspecified), the activity was inactive: 4.54%.

For the compound `CN1CCCCC1COC(=O)C1(O)c2ccccc2CCc2ccccc21` (stereo unspecified), the activity is inactive: 3.67%.

In the case of `CN(Cc1cccnc1)C(=O)COc1ccc(Cl)c(Cl)c1.O=[N+]([O-])c1cc([N+](=O)[O-])c(O)c([N+](=O)[O-])c1`, the activity is inactive: -1.55%.

In the case of `O=[N+]([O-])c1cc([N+](=O)[O-])c(-n2nnc3ccccc32)c([N+](=O)[O-])c1`, the activity is inactive: -0.2%.

For `Cc1nc2ccc3ccccc3c2s1.O=[N+]([O-])c1cc([N+](=O)[O-])c(O)c([N+](=O)[O-])c1`, the activity is inactive: 9.03%.

Turning to `O=[N+]([O-])c1cc([N+](=O)[O-])c(-c2cnn(-c3ccccc3)c2)c([N+](=O)[O-])c1`, the activity is inactive: 2.83%.

For the compound `Cc1cc(C)cc(OP(C)(=O)Nc2ccc(C)cc2C)c1` (stereo unspecified), the activity was inactive: -2.32%.

Consider `CCOC(=O)c1ccc(NP(C)(=O)Oc2cc(C)cc(C)c2)cc1` (stereo unspecified), for which the activity is inactive: 4.62%.

On to `COc1ccccc1OP(C)(=O)Nc1cccc(Br)c1` (stereo unspecified), for which the activity is inactive: 3.19%.

Consider `Cc1cc(C)cc(OP(C)(=O)Nc2ccccn2)c1` (stereo unspecified), for which the activity is inactive: -0.64%.

Take `CP(=O)(Nc1cccc(Br)c1)Oc1ccccc1` (stereo unspecified): the activity is inactive: -8.96%.

Take `Cc1ccc(C)c(NP(C)(=O)Oc2ccccc2)c1` (stereo unspecified): the activity was inactive: 0.21%.

As to `O=C(O)c1cccc(Nc2c([N+](=O)[O-])cc([N+](=O)[O-])cc2[N+](=O)[O-])c1`, the activity was inactive: 5.56%.

Take `CC1=NCCc2c1[nH]c1ccccc21.O=[N+]([O-])c1cc([N+](=O)[O-])c(O)c([N+](=O)[O-])c1`: the activity was inactive: 0.45%.

With `CC(C)(C)c1ccc(OP(C)(=O)Nc2ccc(SC(F)(F)F)cc2)cc1` (stereo unspecified), the activity was inactive: 1.71%.

With `Cc1cccc(C)c1OP(C)(N)=O` (stereo unspecified), the activity was inactive: -0.01%.

Regarding `O=[N+]([O-])c1ccc2c(c1)C=Nc1ccccc1O2`, the activity is inactive: 0.58%.

Turning to `O=[N+]([O-])c1cc([N+](=O)[O-])c(Nc2cccnc2)c([N+](=O)[O-])c1`, the activity was inactive: 1.26%.

As to `COc1ccccc1OP(C)(=O)Nc1cc(Cl)ccc1C` (stereo unspecified), the activity was inactive: -6.69%.

Regarding `COc1ccc(OP(C)(=O)Nc2cccc(F)c2)cc1` (stereo unspecified), the activity is inactive: 1.34%.

Take `Cc1cc(C)cc(OP(C)(N)=O)c1` (stereo unspecified): the activity is inactive: 3.28%.

Regarding `CCOC(=O)c1ccc(NP(C)(=O)Oc2ccccc2)cc1` (stereo unspecified), the activity is inactive: 0.34%.

For the compound `COc1ccccc1OP(C)(=O)Nc1ccc(C)cc1` (stereo unspecified), the activity was inactive: -0.73%.

With `Cc1ccc(NP(C)(=O)Oc2ccccc2)c(C)c1` (stereo unspecified), the activity is inactive: -8.56%.

Turning to `COc1ccccc1-c1ccccn1.O=[N+]([O-])c1cc([N+](=O)[O-])c(O)c([N+](=O)[O-])c1`, the activity is inactive: -1.3%.

Take `CP(=O)(NC(=O)Nc1ccccc1)Oc1ccccc1` (stereo unspecified): the activity is inactive: 1.93%.

For `CCc1ccc(OP(C)(=O)N2CCN(c3ccc([N+](=O)[O-])cc3)CC2)cc1` (stereo unspecified), the activity was inactive: 1.27%.

`Cc1cc(C)cc(OP(C)(=O)Nc2ccc(SC(F)(F)F)cc2)c1` (stereo unspecified): the activity was inactive: 9.14%.

`Cc1cccc(C)c1OP(C)(=O)Nc1ccc(SC(F)(F)F)cc1` (stereo unspecified): the activity was inactive: -2.25%.

On to `CP(=O)(Nc1ccc(SC(F)(F)F)cc1)Oc1ccc(Cl)cc1` (stereo unspecified), for which the activity was inactive: 1.05%.

With `CP(=O)(Oc1ccccc1)OC(c1ccccc1)C(F)(F)F` (stereo unspecified), the activity was inactive: -2.22%.

As for `CP(=O)(Nc1ccccn1)Oc1ccc(Cl)cc1` (stereo unspecified), the activity is inactive: -2.26%.

For the compound `CCOP(C)(=S)SCC(=O)NC(C)C(=O)O` (stereo unspecified), the activity was inactive: -1.38%.

Consider `CCOC(=O)c1ccc(NP(C)(=O)Oc2ccc(OC)cc2)cc1` (stereo unspecified), for which the activity was inactive: 1.52%.

In the case of `O=[N+]([O-])c1cc([N+](=O)[O-])c(O)c([N+](=O)[O-])c1.c1ccc(Oc2ccncc2)cc1`, the activity was inactive: 2.73%.

With `COc1ccccc1OP(C)(=O)Nc1ccccc1` (stereo unspecified), the activity is inactive: 6.51%.

On to `CP(=O)(Nc1ccccc1Br)Oc1ccccc1` (stereo unspecified), for which the activity is inactive: 6.61%.

As for `CP(=S)(Nn1cnnc1)Oc1ccccc1` (stereo unspecified), the activity is inactive: -3.48%.
